The target of experiment [1] is rat spinal cord membrane receptor. Description: Radioligand binding to rat spinal cord membranes. The following applies: * marks difference from NPFF1. The procedure: Transfected cells from culture flasks are scraped into 5 ml of 20 mM Tris-HCl, 5 mM EDTA, pH 7.5, and lysed by sonication. The cell lysates are centrifuged at 1000 rpm for 5 min. at 4° C., and the supernatant is centrifuged at 30,000× g for 20 min. at 4° C. […] Optimal membrane suspension dilutions, defined as the protein concentration required to bind less than 10% of the added radioligand, are added to 96-well polpropylene microtiter plates containing ^3H-labeled compound, unlabeled compounds, and binding buffer to a final volume of 250 μl. In equilibrium saturation binding assays membrane preparations are incubated in the presence of increasing concentrations of [^3H]-labeled compound.
Competition assay: 50 pM radioligand, 10–12 points. Binding reaction mixtures are incubated for 2 hr at 25° C., and the reaction stopped by filtration through a double layer of GF filters treated with 0.1% polyethyleneimine, using a cell harvester. Wash buffer: 50 mM Tris-HCl, 0.1% BSA. Radioactivity may be measured by scintillation counting and data are analyzed by a computerized non-linear regression program. Non-specific binding is defined as the amount of radioactivity remaining after incubation of membrane protein in the presence of 1 μM final concentration […]. Protein concentration may be measured by the Bradford method using Bio-Rad Reagent, with bovine serum albumin as a standard. […]

For experiment [2], the system named is NPFF receptors. The following applies: at a concentration of 10 μM; spinal cord membranes; cited from earlier work.

In the case of `CC(C)C[C@H](NC(=O)CNC(=O)[C@H](C)NC(=O)[C@H](CC(C)C)NC(=O)[C@H](CCCNC(=N)N)NC(=O)[C@H](Cc1c[nH]cn1)NC(=O)[C@@H](NC(=O)[C@@H](NC(=O)[C@@H]1CSSC[C@H](NC(=O)[C@H](C)N)C(=O)N[C@@H](CC(=O)O)C(=O)N[C@@H]([C@@H](C)O)C(=O)N[C@@H](C)C(=O)N[C@@H]([C@@H](C)O)C(=O)N1)C(C)C)[C@@H](C)O)C(=O)N[C@@H](CC(C)C)C(=O)N[C@@H](CO)C(=O)N[C@@H](CCCNC(=N)N)C(=O)N[C@@H](CO)C(=O)NCC(=O)NCC(=O)N[C@H](C(=O)N[C@H](C(=O)N[C@@H](CCCCN)C(=O)N[C@@H](CC(N)=O)C(=O)N[C@@H](CC(N)=O)C(=O)N[C@@H](Cc1ccccc1)C(=O)N[C@H](C(=O)N1CCC[C@H]1C(=O)N[C@H](C(=O)N[C@@H](CC(N)=O)C(=O)N[C@H](C(=O)NCC(=O)N[C@@H](CO)C(=O)N[C@@H](CCCCN)C(=O)N[C@@H](C)C(=O)N[C@@H](Cc1ccccc1)C(N)=O)C(C)C)[C@@H](C)O)C(C)C)C(C)C)C(C)C` [CGRP], the “pKi for rat spinal cord membrane receptor binding, MEAN” value in experiment [1] worked out at 5.000. Besides, the “inhibition of [125I](1DMe)Y8Fa binding” value in experiment [2] is on record as “No inhibition”.

The values above are taken from patent publication US7041461B2 (H. Lundbeck A/S, priority 1998, dated 2006).
